Laboratory results published in patent publication US20230285402A1, “Compositions and Methods of Modulating Short-Chain Dehydrogenase Activity” (BOARD OF REGENTS OF THE UNIVERSITY OF TEXAS SYSTEM, priority 2013, published 2023).

Chains of the proteins cited; added tags and fusions are not shown.
UniProt P15428, whole entry: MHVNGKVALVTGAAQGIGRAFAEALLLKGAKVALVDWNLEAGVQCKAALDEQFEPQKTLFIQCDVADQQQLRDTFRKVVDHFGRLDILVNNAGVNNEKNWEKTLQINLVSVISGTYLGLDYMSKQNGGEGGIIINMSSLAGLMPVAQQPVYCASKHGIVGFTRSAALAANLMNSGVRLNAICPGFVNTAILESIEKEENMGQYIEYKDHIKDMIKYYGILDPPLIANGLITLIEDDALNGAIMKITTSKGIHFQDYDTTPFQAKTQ

Assays:
[1] = target: recombinant 15-PGDH protein (a 15-PGDH-GST fusion protein) (Homo sapiens (Human), UniProt P15428); experiment: Recombinant 15-PGDH activity, transfer of tritium from 15(S)-[15-3H] PGE2 to glutamate; type: biochemical; conditions: FIG. 13; tritium method
[2] = target: T1, 15-PGDH (Homo sapiens (Human), UniProt P15428); experiment: Melting temperature shift of recombinant 15-PGDH (SYPRO Orange); type: binding; conditions: cofactor 10 μM and 100 μM
[3] = tested on: 15-PGDH mRNA; experiment: 15-PGDH mRNA by real-time PCR in colon cancer cell lines; conditions: treated colon cancer cell lines
[4] = target: T1, 15-PGDH; experiment: Total 15-PGDH activity in lysates of treated cell lines; type: cell-based; conditions: FIG. 13; tritium method
[5] = tested on: A549 cells; experiment: PGE2 in medium of IL1-beta stimulated A549 cells; type: cell-based; conditions: IL1-beta 23 hours, compound for last 5 hours
[6] = tested on: 15-PGDH protein; experiment: Western blot / immuno-fluorescence of 15-PGDH protein levels in treated cells

## COc1ccc(-c2cc(C(F)(F)F)n3nc(C(=O)N4CCCCC4)cc3n2)cc1
[1]
  pIC50: 7.30
[2]
  direct binding to 15-PGDH, in words: evidence of direct binding
[3]
  15-PGDH mRNA levels: do not in general alter 15-PGDH mRNA levels
[4]
  15-PGDH activity in treated cells: increasing 15-PGDH activity in most cell lines
[5]
  15-PGDH activity in cells as reflected in PGE2 levels: clear inhibition of 15-PGDH activity
[6]; 5 μM, V400-S3-2-32 cells
  wt-PGDH protein expressed from cDNA expression vector: increases levels of 15-PGDH protein
[6]; V400-M3-2-72 cells
  catalytically dead mutant 15-PGDH (mu-PGDH) protein: increases protein levels
[6]; V503 cells
  15-PGDH protein levels (immuno-fluorescence and western blot): increase in 15-PGDH protein levels
[6]; colon cell lines, FIG. 3
  15-PGDH protein levels (western blot): increases 15-PGDH protein levels

pIC50: −log10 of the molar value.
